Measured values taken from ChEMBL document CHEMBL1140205, “Discovery and development of fatty acid amide hydrolase (FAAH) inhibitors” (J Med Chem, 2008).

Amino acid sequences for entries named in this document (tags omitted).
UniProt O00519, whole entry, looked up: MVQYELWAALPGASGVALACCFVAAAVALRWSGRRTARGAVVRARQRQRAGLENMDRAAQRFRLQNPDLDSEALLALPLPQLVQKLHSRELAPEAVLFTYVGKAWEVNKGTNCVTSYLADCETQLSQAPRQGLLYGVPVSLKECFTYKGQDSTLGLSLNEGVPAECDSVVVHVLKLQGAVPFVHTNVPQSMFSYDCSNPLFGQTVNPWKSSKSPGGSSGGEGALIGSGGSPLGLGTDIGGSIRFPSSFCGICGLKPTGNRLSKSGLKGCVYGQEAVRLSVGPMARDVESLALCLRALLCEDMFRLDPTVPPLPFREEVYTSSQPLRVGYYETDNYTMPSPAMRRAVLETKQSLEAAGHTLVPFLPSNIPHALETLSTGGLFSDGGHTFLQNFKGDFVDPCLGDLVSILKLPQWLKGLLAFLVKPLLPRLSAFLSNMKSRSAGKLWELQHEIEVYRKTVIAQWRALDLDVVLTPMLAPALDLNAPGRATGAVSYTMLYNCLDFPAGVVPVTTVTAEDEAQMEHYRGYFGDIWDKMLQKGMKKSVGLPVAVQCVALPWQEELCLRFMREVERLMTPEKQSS

Target: Fatty-acid amide hydrolase 1 (Homo sapiens, UniProt O00519)
Assay: Inhibition of human FAAH

## O=C(O)c1cncc(OC(=O)N2CCC(CCCc3ccccc3Cl)CC2)c1
  IC50: 12 nM
